The values that follow come from patent US9492453B2 (priority 2007, dated 2016).

Usually IC50 stands for the concentration needed to halve the response being measured.

SMILES strings stand for the structures.

The subject of this test is PKB (Akt). The following applies: read-out: Cellular PKB Mean IC50; MDA-MB-468 cells, phosphorylation of Serine-9 of GSK-3β, 2 hours incubation.
`CC[C@H](NC(=O)C1(N)CCN(c2ncnc3[nH]ccc23)CC1)c1ccc(Cl)cc1` [Example 3A, (S)-4-amino-N-(1-(4-chlorophenyl)propyl)-1-(7H-pyrrolo[2,3-d]pyrimidin-4-yl)piperidine-4-carboxamide]: the IC50 was found to be 110 nM.

Regarding `CC[C@@H](NC(=O)C1(N)CCN(c2ncnc3[nH]ccc23)CC1)c1ccc(Cl)cc1` [Example 3B, (R)-4-amino-N-(1-(4-chlorophenyl)propyl)-1-(7H-pyrrolo[2,3-d]pyrimidin-4-yl)piperidine-4-carboxamide], the IC50 was more than 3100 nM.

`NC1(C(=O)N[C@@H](CCCO)c2ccc(Cl)cc2)CCN(c2ncnc3[nH]ccc23)CC1` [Example 7A, (S)-4-amino-N-(1-(4-chlorophenyl)-4-hydroxybutyl)-1-(7H-pyrrolo[2,3-d]pyrimidin-4-yl)piperidine-4-carboxamide]: the 50% inhibitory concentration (IC50) was determined as 100 nM.

On to `NC1(C(=O)N[C@H](CCCO)c2ccc(Cl)cc2)CCN(c2ncnc3[nH]ccc23)CC1` [Example 7B, (R)-4-amino-N-(1-(4-chlorophenyl)-4-hydroxybutyl)-1-(7H-pyrrolo[2,3-d]pyrimidin-4-yl)piperidine-4-carboxamide], for which the IC50 is more than 3100 nM.
